The values below come from US8217060B2, “Benzimidazole derivatives useful as TRP M8 receptor modulators” (Janssen Pharmaceutica, NV, priority 2009, dated 2012).

The chains behind the UniProt entries cited, without tags or fusion partners. Residues count along the entry.
UniProt Q1A7N1, 1-1104: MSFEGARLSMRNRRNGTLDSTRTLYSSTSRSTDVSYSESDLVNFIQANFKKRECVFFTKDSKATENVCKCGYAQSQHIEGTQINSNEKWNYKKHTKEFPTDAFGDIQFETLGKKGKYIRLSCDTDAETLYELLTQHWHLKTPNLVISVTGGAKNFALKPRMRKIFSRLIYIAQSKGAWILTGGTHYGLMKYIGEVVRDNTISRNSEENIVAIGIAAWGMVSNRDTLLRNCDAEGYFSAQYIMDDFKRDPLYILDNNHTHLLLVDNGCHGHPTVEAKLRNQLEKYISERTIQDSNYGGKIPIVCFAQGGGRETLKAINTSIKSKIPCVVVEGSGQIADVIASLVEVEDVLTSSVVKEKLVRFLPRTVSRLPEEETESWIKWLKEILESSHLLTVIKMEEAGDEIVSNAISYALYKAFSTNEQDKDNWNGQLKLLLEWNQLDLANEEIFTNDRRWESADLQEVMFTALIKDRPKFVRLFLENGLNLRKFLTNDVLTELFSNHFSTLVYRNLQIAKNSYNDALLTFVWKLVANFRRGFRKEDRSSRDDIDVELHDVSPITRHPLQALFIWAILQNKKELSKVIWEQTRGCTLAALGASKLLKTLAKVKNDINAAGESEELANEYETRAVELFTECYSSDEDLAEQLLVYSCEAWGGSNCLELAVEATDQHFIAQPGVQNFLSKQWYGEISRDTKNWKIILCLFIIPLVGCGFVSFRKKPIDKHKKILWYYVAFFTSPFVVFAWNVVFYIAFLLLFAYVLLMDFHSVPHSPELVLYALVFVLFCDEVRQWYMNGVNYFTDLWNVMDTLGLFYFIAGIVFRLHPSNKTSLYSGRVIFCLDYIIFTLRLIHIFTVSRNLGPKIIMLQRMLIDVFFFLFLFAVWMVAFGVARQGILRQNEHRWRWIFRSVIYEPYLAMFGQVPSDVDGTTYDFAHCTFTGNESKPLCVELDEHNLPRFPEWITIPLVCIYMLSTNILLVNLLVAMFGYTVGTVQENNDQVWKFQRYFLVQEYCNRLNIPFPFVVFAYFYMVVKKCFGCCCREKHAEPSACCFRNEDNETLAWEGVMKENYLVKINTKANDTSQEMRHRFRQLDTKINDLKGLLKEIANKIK

In the test the target is T1, canine TRPM8 (Canis lupus familiaris, UniProt Q1A7N1).
T1 construct: expressed in transfected cells
Nature of the test: In Vitro Canine TRPM8 Functional Assay (icilin-induced intracellular Ca2+ fluorescence, FLIPR/FDSS). Format: cell-based. As to conditions: HEK293 cells stably expressing canine TRPM8. On the procedure:
The functional activity of representative compounds of the formula (I) of the present invention were measured by measuring changes in intracellular calcium concentration using a Ca^2+-sensitive fluorescent dye. The changes in fluorescent signal were monitored by a fluorescence plate reader, either a FLIPR™ (Molecular Devices) or FDSS (Hamamatsu).
HEK293 cells stably expressing canine TRPM8 were routinely grown as monolayers in Dulbecco's minimum essential medium supplemented with 10% FBS, 2 mM L-glutamine, 100 units/mL penicillin, 100 ug/mL streptomycin and 400 μg/mL G418. Cells were maintained in 5% CO2 at 37° C. […] Cells were challenged with compounds of the formula (I) (at varying concentrations) and intracellular Ca^2+ was measured for 5 min prior to the addition of icilin to all wells to achieve a final concentration that produces approximately an 80% maximal response.
Basal FI was subtracted prior to normalizing data to percent of maximal response. Curves were generated using the average of quadruplicate wells for each data point, were analyzed using nonlinear regression of either sigmoidal dose response or sigmoidal dose response (variable slope). Finally, the EC50 and IC50 values were calculated with the best-fit dose curve determined by GraphPad Prism

By IC50 is commonly meant the concentration that inhibits the measured activity by half. With “(E)-2-(2-Cyclohexyl-vinyl)-5-(2-trifluoromethyl-pyridin-4-yl)-1H-benzimidazole hydrochloride [Compound 55]”, the “% Inh @ 0.2 μM” value (0.2 μM test compound, icilin challenge) is given as 76%. Under “icilin challenge (~80% maximal response), eight-point dose-response”, this substance displayed a concentration for half-maximal inhibition (IC50) of 50 nM.
